# Tested on: MRL/Ipr mice
# Test: Vasculitis disease model, MRL/Ipr mice, gene expression in renal artery
# Assay type: in vivo, mouse
# Conditions: conjugate 0.12 mg/kg every 2 days, abatacept 5.7 mg/kg, 10 weeks
# Procedure: MRL/Ipr mice were used to confirm the efficacy of a long-acting triple agonist against vasculitis in a disease model. […] Therefore, the mouse was selected as a vasculitis disease model.
# Prepared were: a normal mouse control group administered with excipients; a disease model control group administered with excipients; a control group administered with 5.7 mg/kg of abatacept (Orencia Inc.); and a test group administered with 0.12 mg/kg of the long-acting conjugate of triple agonist. The excipient and the long-acting conjugate of the triple agonist were administered every 2 days, and the experiment was terminated on the 10th week. As the long-acting conjugate of the triple agonist, the long-acting conjugate of the triple agonist prepared according to Example 2 (SEQ ID NO: 42) was used.
substance,measurement,setting,value
abatacept [reference compound],expression of vascular angiogenic factors MMP-2 and MMP-9 in the renal artery,"compared to control group, FIG. 1B",unlike the abatacept-administered group
same,"expression of inflammation-associated genes MCP-1, IL-1β, IL-6, TNF-α in the renal artery","compared to disease model control group, FIG. 1A",significantly reduced

# From patent US20230381333A1, “PHARMACEUTICAL COMPOSITION COMPRISING GLUCAGON/GLP-1/GIP TRIPLE AGONIST OR LONG-ACTING CONJUGATE THEREOF FOR PREVENTING OR TREATING VASCULITIS” (HANMI PHARM CO., LTD., priority 2020, published 2023)
